Literature values, collected in patent US20090181086A1 (priority 2008, published 2009).
Read-outs that look alike come from different tables or passages of the source.

Compound: C#CCN[C@@H]1CCc2ccccc21.CS(=O)(=O)O [Rasagiline mesylate, 1H-Inden-1-amine, 2,3-dihydro-N-2-propynyl-, (1R)-, methanesulfonate]
- solubility, in words (ethanol): freely soluble
- solubility, in words (isopropanol): sparingly soluble
- solubility, in words (water): freely soluble
